Results on 86 compounds are retold here after PubChem BioAssay AID743247 (Broad Institute, 2014).

Structures are written as SMILES. The entries are a selection whose mix differs from that of the whole data set. Active and inactive are the calls of the source.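 How the source made its calls: active means mean inhibition across replicates of 30% or more, regardless of how many single replicates reach that level; inconclusive means mean under 30% yet at least half of replicates reach 30%; inactive means the rest.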

As usually defined, the inhibition is the drop in the measured response relative to a control, in per cent.

This experiment in a line: blockers of fibronectin fibrillogenesis by fibroblasts – AH1F cells, Alexa488-fibronectin fluorescence, plate reader, primary screen (AID 743247).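 Further: positive control wells lacked labelled fibronectin entirely.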 The settings on record: Alexa488-fibronectin deposition fluorescence, overnight, at 12.6 µM, active compounds read high. In a few lines:
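Test system: AH1F fibroblast monolayer depositing Alexa488-labelled fibronectin into matrix. Input: 10000 cells per well. Technique: fluorescence, ex 485 nm, em 525 nm. Buffer or medium: DMEM plus 2% serum, read in PBS. Timing: 1 h cell adhesion before compound, then overnight fibronectin incubation. Compound: single dose, pinned. Read-out basis: inhibition from reduced deposited-fibronectin fluorescence.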
As to `COc1ccc(NC2CCN(CCc3ccccc3)CC2)c(OC)c1`, the inhibition is inactive: -5.46%.

As for `CCOC(=O)N1CCC(Nc2ccc(F)cc2)CC1`, the inhibition is inactive: -5.37%.

Regarding `O=C(NCC1(N2CCCCC2)CCCCC1)c1ccc(F)cc1`, the inhibition is inactive: -0.71%.

In the case of `CCCCn1nnnc1C(c1cc2ccccc2o1)N1CCC(n2c(=O)[nH]c3ccccc32)CC1` (stereo unspecified), the inhibition is inactive: 12.3%.

In the case of `O=P1(N(CCCl)CCCl)SCCCS1`, the inhibition was inactive: -2.91%.

On to `CCCCOc1ccc(C(=O)NCC2(N3CCOCC3)CCCCC2)cc1`, for which the inhibition was inactive: 8.38%.

On to `CCOc1ccc(C)cc1CN(CCCl)CCCl`, for which the inhibition was inactive: -7.84%.

Regarding `CC(C)(C)n1nnnc1C(c1ccccc1)N1CCC(n2c(=O)[nH]c3ccccc32)CC1` (stereo unspecified), the inhibition was inactive: 7.15%.

`COc1cc(C(=O)NCC2(N(C)C)CCCCC2)ccc1OC(F)F`: the inhibition is inactive: 0.463%.

Regarding `CCOC(=O)N1CCC(Nc2cccc(C)c2)CC1`, the inhibition is inactive: -6.95%.

With `O=c1[nH]c2ccccc2n1C1CCN(C(c2ccccc2)c2nnnn2C2CCCCC2)CC1` (stereo unspecified), the inhibition is inactive: 0.43%.

Take `Cc1cccc(NC2(C#N)CCN(Cc3ccccc3)CC2)c1`: the inhibition is inactive: 4.56%.

Take `CSc1ccccc1C(=O)NCC1(N2CCCCC2)CCCCC1`: the inhibition is inactive: -7.67%.

As for `CCCCn1nnnc1C(c1cccs1)N1CCC(n2c(=O)[nH]c3ccccc32)CC1` (stereo unspecified), the inhibition is inactive: 6.77%.

Regarding `CCCCn1nnnc1C(CC)N1CCC(n2c(=O)[nH]c3ccccc32)CC1` (stereo unspecified), the inhibition was inactive: 2.4%.

Take `O=C(NCC1(N2CCCCC2)CCCCC1)c1ccc(=O)[nH]c1`: the inhibition was inactive: -17.9%.

`CCC(c1nnnn1C1CCCC1)N1CCC(n2c(=O)[nH]c3ccccc32)CC1` (stereo unspecified): the inhibition is inactive: -5.2%.

`COc1ccc(C(=O)NCC2(N3CCCCC3)CCCCC2)c(OC)c1OC`: the inhibition is inactive: -27.7%.

For `CC(C)(C)OC(=O)N1CCC(N(C(=O)c2ccccc2)c2ccc(F)cc2)CC1`, the inhibition was inactive: -0.795%.

As for `COc1ccc(C(=O)NCC2(N3CCCCC3)CCCCC2)cc1`, the inhibition was inactive: -1.73%.

For the compound `CCCCn1nnnc1C(c1ccc(OC)cc1)N1CCC(n2c(=O)[nH]c3ccccc32)CC1` (stereo unspecified), the inhibition is inactive: -2.45%.

With `CCOC(=O)N1CCC(Nc2ccc(OC)cc2)CC1`, the inhibition was inactive: 13.5%.

Consider `COc1ccc(Cl)cc1C(=O)NCC1(N2CCOCC2)CCCCC1`, for which the inhibition was inactive: -4.61%.

Consider `O=C(NCC1(N2CCCCC2)CCCCC1)c1ccc(Cl)s1`, for which the inhibition was inactive: -12.3%.

Consider `N#CC1(Nc2ccccc2)CCN(Cc2ccccc2)CC1`, for which the inhibition was inactive: -2.94%.

Take `Cc1cc(C)cc(N(C(=O)c2ccccc2)C2CCN(C(=O)OC(C)(C)C)CC2)c1`: the inhibition is inactive: -16.5%.

On to `O=c1[nH]c2ccccc2n1C1CCN(C(c2ccccc2OC(F)(F)F)c2nnnn2C2CCCCC2)CC1` (stereo unspecified), for which the inhibition is inactive: -4.01%.

On to `O=C(NCC1(N2CCCCC2)CCCCC1)c1ccc(Cl)nc1`, for which the inhibition was inactive: -14.2%.

For `CCCCn1nnnc1C(c1ccnc2ccccc12)N1CCC(n2c(=O)[nH]c3ccccc32)CC1` (stereo unspecified), the inhibition is inactive: -5.98%.

With `O=C(NCC1(N2CCOCC2)CCCCC1)c1cc(F)c(F)cc1Cl`, the inhibition was inactive: 3.71%.

Turning to `CCC(c1nnnn1C(C)(C)C)N1CCC(n2c(=O)[nH]c3ccccc32)CC1` (stereo unspecified), the inhibition is inactive: 6.31%.

Turning to `COc1cc(OC)c(C(=O)NCC2(N(C)C)CCCCC2)cc1OC`, the inhibition is inactive: -14.8%.

In the case of `CN(C)c1cccc(C(=O)NCC2(N3CCCCC3)CCCCC2)c1`, the inhibition is inactive: -7.12%.

`COc1ccc(CN(CCCl)CCCl)cc1Cl`: the inhibition is inactive: -1.6%.

Take `CC(C)c1ccc(NC2CCN(C(=O)OC(C)(C)C)CC2)cc1`: the inhibition is inactive: -1.44%.

Take `CCCOc1ccc(C(=O)NCC2(N(C)C)CCCCC2)cc1OC`: the inhibition is inactive: -9.31%.

Turning to `COc1ccc(C(c2nnnn2C2CCCC2)N2CCC(n3c(=O)[nH]c4ccccc43)CC2)cc1` (stereo unspecified), the inhibition was inactive: -7.18%.

Take `O=C(NCC1(N2CCCCC2)CCCCC1)c1cncc(Br)c1`: the inhibition was inactive: -3.56%.

For `O=C(NCC1(N2CCCCC2)CCCCC1)c1cccc([N+](=O)[O-])c1`, the inhibition was inactive: -0.398%.

Regarding `CSc1ccc(C(=O)NCC2(N3CCOCC3)CCCCC2)cc1`, the inhibition was inactive: 0.171%.

Consider `O=c1[nH]c2ccccc2n1C1CCN(C(c2ccccc2OC(F)(F)F)c2nnnn2C2CCCC2)CC1` (stereo unspecified), for which the inhibition was inactive: -2.25%.

With `CCN1CCC(Nc2ccc(Cl)cc2)CC1`, the inhibition was inactive: 6.79%.

As to `O=C(NCC1(N2CCCCC2)CCCCC1)c1ccc(OC(F)F)cc1`, the inhibition is inactive: 12.8%.

On to `CN1CCN(CCOC(=O)C(O)(c2ccccc2)c2ccccc2)CC1`, for which the inhibition was inactive: 2.38%.

For the compound `COc1ccc(NC2CCN(C(=O)OC(C)(C)C)CC2)cc1`, the inhibition is inactive: 0.976%.

Turning to `CC(C)c1ccc(C(=O)NCC2(N3CCOCC3)CCCCC2)cc1`, the inhibition was inactive: -7.46%.

For the compound `COc1cc(C(=O)NCC2(N3CCCCC3)CCCCC2)ccc1OC(F)F`, the inhibition was inactive: 3.05%.

Take `O=C(NCC1(N2CCCCC2)CCCCC1)c1cccc(C(F)(F)F)c1`: the inhibition is inactive: -1.86%.

On to `CC(C)(C)OC(=O)N1CCC(N(C(=O)c2ccccc2)c2ccc(Cl)cc2)CC1`, for which the inhibition is inactive: -7.13%.

In the case of `N#Cc1ccc(C(=O)NCC2(N3CCCCC3)CCCCC2)cc1`, the inhibition was inactive: -4.17%.

In the case of `O=c1[nH]c2ccccc2n1C1CCN(C(c2ccccc2)c2nnnn2C2CCCC2)CC1` (stereo unspecified), the inhibition was inactive: 3.74%.

In the case of `CCCN1CCC(Nc2cc(OC)cc(OC)c2)CC1`, the inhibition is inactive: 2.37%.

`Cc1cc(N(CCCl)CCCl)ccc1C=O`: the inhibition was inactive: -6.18%.

With `c1ccc(CN2CCC(Nc3ccccc3)CC2)cc1`, the inhibition is inactive: 0.946%.

For the compound `C/C(N)=N\P(=O)(Oc1ccccc1)Oc1ccccc1`, the inhibition was inactive: 1.8%.

Regarding `CN(C)C1(CNC(=O)c2cccc(C#N)c2)CCCCC1`, the inhibition is inactive: -2.16%.

For `O=c1[nH]c2ccccc2n1C1CCN(C(c2ccnc3ccccc23)c2nnnn2C2CCCC2)CC1` (stereo unspecified), the inhibition was inactive: -10%.

For `O=c1[nH]c2ccccc2n1C1CCN(C(c2cccs2)c2nnnn2C2CCCCC2)CC1` (stereo unspecified), the inhibition is inactive: -57.1%.

For the compound `COc1cc(C(=O)NCC2(N3CCOCC3)CCCCC2)cc(OC)c1C`, the inhibition was inactive: 6.16%.

Regarding `CCCCn1nnnc1C(c1ccccc1)N1CCC(n2c(=O)[nH]c3ccccc32)CC1` (stereo unspecified), the inhibition is inactive: -3.17%.

Consider `CCCCn1nnnc1C(c1cccc(OC)c1OC)N1CCC(n2c(=O)[nH]c3ccccc32)CC1` (stereo unspecified), for which the inhibition is inactive: 11.6%.

Turning to `O=c1[nH]c2ccccc2n1C1CCN(C(c2cccs2)c2nnnn2C2CCCC2)CC1` (stereo unspecified), the inhibition was inactive: -2.94%.

On to `O=C(OC1CN2CCC1CC2)C1c2ccccc2C=Cc2ccccc21` (stereo unspecified), for which the inhibition is inactive: -3.28%.

As to `COc1cccc(C(c2nnnn2C(C)(C)C)N2CCC(n3c(=O)[nH]c4ccccc43)CC2)c1OC` (stereo unspecified), the inhibition is inactive: 0.997%.

With `CCOC(=O)N1CCC(Nc2ccc(C)cc2)CC1`, the inhibition was inactive: -4%.

As for `CCCOc1ccc(C(=O)NCC2(N(C)C)CCCCC2)cc1`, the inhibition was inactive: 0.839%.

Take `O=C(O)C1(Nc2ccccc2)CCN(Cc2ccccc2)CC1`: the inhibition is inactive: 8.94%.

On to `NN(c1ccccc1)C1CCN(CCc2ccccc2)CC1`, for which the inhibition is inactive: -7.52%.

With `CC(C)(C)OC(=O)N1CCC(Nc2ccccc2)CC1`, the inhibition was inactive: 5.37%.

Regarding `CN1CCC(Nc2ccc(F)c(Cl)c2)CC1`, the inhibition is inactive: -1.66%.

As for `CCOc1ncccc1C(=O)NCC1(N2CCOCC2)CCCCC1`, the inhibition was inactive: -7.93%.

In the case of `CN1CCC(Nc2ccc(Cl)cc2)CC1`, the inhibition is inactive: 2.66%.

`COc1cc(OC)cc(C(=O)NCC2(N3CCOCC3)CCCCC2)c1`: the inhibition is inactive: -0.873%.

Consider `COc1cccc(C(c2nnnn2C2CCCC2)N2CCC(n3c(=O)[nH]c4ccccc43)CC2)c1OC` (stereo unspecified), for which the inhibition was inactive: -2.79%.

Take `COc1cccc(C(=O)N(c2cc(C)cc(C)c2)C2CCN(C(=O)OC(C)(C)C)CC2)c1`: the inhibition is inactive: -4.48%.

As to `Cc1ccc(NC2(C#N)CCN(Cc3ccccc3)CC2)cc1`, the inhibition is inactive: -5.86%.

`Cc1ccc(C(=O)NCC2(N3CCCCC3)CCCCC2)o1`: the inhibition is inactive: 0.469%.

Turning to `COc1cc(OC)cc(C(=O)NCC2(N3CCCCC3)CCCCC2)c1`, the inhibition was inactive: 6.38%.

On to `CCC(c1nnnn1C1CCCCC1)N1CCC(n2c(=O)[nH]c3ccccc32)CC1` (stereo unspecified), for which the inhibition was inactive: 0.333%.

Consider `CC(=O)N(c1ccccc1)C1CCNCC1`, for which the inhibition was inactive: 6.29%.

Regarding `COc1cccc(C(c2nnnn2C2CCCCC2)N2CCC(n3c(=O)[nH]c4ccccc43)CC2)c1OC` (stereo unspecified), the inhibition is inactive: -0.405%.

As to `Cn1c(=O)[nH]cc(N(CCCl)CCCl)c1=O`, the inhibition was inactive: 5.13%.

On to `O=C(NCC1(N2CCCCC2)CCCCC1)c1ccco1`, for which the inhibition is inactive: -5.29%.

On to `COc1ccc(C(c2nnnn2C2CCCCC2)N2CCC(n3c(=O)[nH]c4ccccc43)CC2)cc1` (stereo unspecified), for which the inhibition was inactive: -1.18%.

Take `CCN1CCC(Nc2cccc(F)c2)CC1`: the inhibition is inactive: 3.32%.

Take `Cc1ccccc1NC1(C#N)CCN(Cc2ccccc2)CC1`: the inhibition was inactive: -3.44%.
